Measured values as given in patent EP3026061A1 (NOVO NORDISK A/S, dated 2016).
Changes are numbered by the printed parent chain.

Protein sequences, listed by entry. Tags and fused reporters are not part of them. Chains listed by the source or under a name are the forms on record and can include a tag or linker. Residues count along the entry.
UniProt Q9NP99, 21-205, form in doubt: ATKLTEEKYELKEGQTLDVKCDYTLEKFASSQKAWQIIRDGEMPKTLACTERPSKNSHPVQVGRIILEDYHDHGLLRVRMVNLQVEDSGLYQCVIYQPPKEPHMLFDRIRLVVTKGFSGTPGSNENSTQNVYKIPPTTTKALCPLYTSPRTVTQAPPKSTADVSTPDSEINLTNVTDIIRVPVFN

B1: mAb 0317 (antibody, human IgG4 S228P, kappa, V domains shown)
VH: EVQLVESGGGLVQPGGSLKLSCAASGFTFSTYAMHWVRQASGKGLEWVGRIRTKSSNYATYYAASVKGRFTISRDDSKNTAYLQMNSLKTEDTAVYYCTRDMGIRRQFAYWGQGTLVTVSS
VL: DIVLTQSPDSLAVSLGERATINCRASQSVDTFDYSFLHWYQQKPGQPPKLLIYRASNLESGVPDRFSGSGSGTDFTLTISSLQAEDVAVYYCQQSNSDPYTFGQGTKLEIKR
notes: Variant of mAb 0170
B2: mAb 0318 (antibody, human IgG4 S228P, kappa, V domains shown)
VH: B1 VH
VL: B1 VL with S97Q
notes: Variant of mAb 0170
B3: mAb 0319 (antibody, human IgG4 S228P, kappa, V domains shown)
VH: B1 VH
VL: B1 VL with Q27E
notes: Variant of mAb 0170
B4: mAb 0320 (antibody, human IgG4 S228P, kappa, V domains shown)
VH: B1 VH
VL: B1 VL with Q27E, S97Q
notes: Variant of mAb 0170
B5: mAb 0321 (antibody, human IgG4 S228P, kappa, V domains shown)
VH: B1 VH
VL: B1 VL with S97E
notes: Variant of mAb 0170
B6: mAb 0323 (antibody, human IgG4 S228P, kappa, V domains shown)
VH: B1 VH
VL: B1 VL with Q27E, F32S, S97E
notes: Variant of mAb 0170
B7: mAb 0324 (antibody, human IgG4 S228P, kappa, V domains shown)
VH: B1 VH with A59Y
VL: B1 VL with Q27E, S97E
notes: Variant of mAb 0170
B8: mAb 0325 (antibody, human IgG4 S228P, kappa, V domains shown)
VH: B1 VH with N57S
VL: B1 VL with Q27E, S97E
notes: Variant of mAb 0170
B9: mAb 0326 (antibody, human IgG4 S228P, kappa, V domains shown)
VH: B1 VH with N57S, A59Y
VL: B1 VL with Q27E, S97E
notes: Variant of mAb 0170
B10: mAb 0330 (antibody, human IgG4 S228P, kappa, V domains shown)
VH: B1 VH
VL: B1 VL with F32A, S97Q
notes: Variant of mAb 0170
B11: mAb 0332 (antibody, human IgG4 S228P, kappa, V domains shown)
VH: B1 VH with A59Y
VL: B1 VL with S97Q
notes: Variant of mAb 0170
B12: mAb 0333 (antibody, human IgG4 S228P, kappa, V domains shown)
VH: B1 VH with A59Y
VL: B1 VL with F32A, S97Q
notes: Variant of mAb 0170

Biological target: T1, human TREM-1-Fc (human, UniProt Q9NP99 21-205)
T1 construct: also called His tagged human TREM-1; hTREM-1
Experiment: SPR (ProteOn), captured mAb, TREM-1 as analyte, 1:1 fit

Row | Binder | Kd [nM] | koff [s⁻¹] | kon [M⁻¹ s⁻¹]
1 | B1 | 0.2 | 0.0006 | 4e+06
2 | B2 | 0.2 | 0.0007 | 3e+06
3 | B3 | 0.2 | 0.0006 | 4e+06
4 | B4 | 0.2 | 0.0008 | 4e+06
5 | B5 | 0.2 | 0.0006 | 4e+06
6 | B6 | 0.3 | 0.0006 | 2e+06
7 | B7 | 0.3 | 0.0008 | 3e+06
8 | B8 | 0.08 | 0.0003 | 4e+06
9 | B9 | 0.2 | 0.0007 | 3e+06
10 | B10 | 0.1 | 0.0003 | 2e+06
11 | B11 | 0.5 | 0.001 | 3e+06
12 | B12 | 0.2 | 0.0005 | 2e+06
